From patent publication US20200129511A1, “COMPOUNDS AND METHODS FOR TREATMENT OF NAFLD AND NASH” (Arena Pharmaceuticals, Inc., priority 2017, published 2020) come the findings set out here.

Assay type in all cases: in vivo
Series [1] is described as follows: oral pharmacokinetics in dog. The note with it: Male beagle dog, 7.85 mg/kg, 100% PEG400.
Series [2] can be described thus: oral pharmacokinetics in mouse. The note with it: Male C57B1 mouse, 10 mg/kg, 40% HPβCD.
Series [3] in a line: oral pharmacokinetics in rat. The note with it: Male Sprague-Dawley rat, 10 mg/kg, 40% HPβCD.
The nature of series [4]: oral pharmacokinetics in monkey. The note with it: Male cynomolgus monkey, 10 mg/kg, 100% PEG400.

Consider `COc1c(Nc2ccc(S(C)(=O)=O)nc2C)ncnc1OC1CCN(C(=O)OC(C)C)CC1` [Compound 1, 4-[6-(6-Methanesulfonyl-2-methyl-pyridin-3-ylamino)-5-methoxy-pyrimidin-4-yloxy]-piperidine-1-carboxylic acid isopropyl ester], for which the t1/2 in series [1] was found to be 10.9 h; in series [2] it was 5.9 h; in series [3], 4.3 h; in series [4], 4.4 h.
